Experimental data reported in ChEMBL document CHEMBL4396940, “Synthesis and biological evaluation of 4-(piperid-3-yl)amino substituted 6-pyridylquinazolines as potent PI3Kδ inhibitors” (Bioorg Med Chem, 2019).

How the values were obtained:
Homo sapiens [1] = species on record: Homo sapiens; assay: Selectivity ratio of IC50 for inhibition of PI3K beta (unknown origin) to IC50 for inhibition PI3K delta (unknown origin)
Homo sapiens [2] = species on record: Homo sapiens; assay: Selectivity ratio of IC50 for inhibition of PI3K gamma (unknown origin) to IC50 for inhibition PI3K delta (unknown origin)
Homo sapiens [3] = species on record: Homo sapiens; assay: Selectivity ratio of IC50 for inhibition of PI3K alpha (unknown origin) to IC50 for inhibition PI3K delta (unknown origin)
[4] = target: T1, Phosphatidylinositol 4,5-bisphosphate 3-kinase catalytic subunit delta isoform (Homo sapiens) (UniProt O00329); assay: Potency index, ratio of i-delalisib IC50 to compound IC50 for inhibition of PI3K delta (unknown origin)
T1 sequence (whole entry): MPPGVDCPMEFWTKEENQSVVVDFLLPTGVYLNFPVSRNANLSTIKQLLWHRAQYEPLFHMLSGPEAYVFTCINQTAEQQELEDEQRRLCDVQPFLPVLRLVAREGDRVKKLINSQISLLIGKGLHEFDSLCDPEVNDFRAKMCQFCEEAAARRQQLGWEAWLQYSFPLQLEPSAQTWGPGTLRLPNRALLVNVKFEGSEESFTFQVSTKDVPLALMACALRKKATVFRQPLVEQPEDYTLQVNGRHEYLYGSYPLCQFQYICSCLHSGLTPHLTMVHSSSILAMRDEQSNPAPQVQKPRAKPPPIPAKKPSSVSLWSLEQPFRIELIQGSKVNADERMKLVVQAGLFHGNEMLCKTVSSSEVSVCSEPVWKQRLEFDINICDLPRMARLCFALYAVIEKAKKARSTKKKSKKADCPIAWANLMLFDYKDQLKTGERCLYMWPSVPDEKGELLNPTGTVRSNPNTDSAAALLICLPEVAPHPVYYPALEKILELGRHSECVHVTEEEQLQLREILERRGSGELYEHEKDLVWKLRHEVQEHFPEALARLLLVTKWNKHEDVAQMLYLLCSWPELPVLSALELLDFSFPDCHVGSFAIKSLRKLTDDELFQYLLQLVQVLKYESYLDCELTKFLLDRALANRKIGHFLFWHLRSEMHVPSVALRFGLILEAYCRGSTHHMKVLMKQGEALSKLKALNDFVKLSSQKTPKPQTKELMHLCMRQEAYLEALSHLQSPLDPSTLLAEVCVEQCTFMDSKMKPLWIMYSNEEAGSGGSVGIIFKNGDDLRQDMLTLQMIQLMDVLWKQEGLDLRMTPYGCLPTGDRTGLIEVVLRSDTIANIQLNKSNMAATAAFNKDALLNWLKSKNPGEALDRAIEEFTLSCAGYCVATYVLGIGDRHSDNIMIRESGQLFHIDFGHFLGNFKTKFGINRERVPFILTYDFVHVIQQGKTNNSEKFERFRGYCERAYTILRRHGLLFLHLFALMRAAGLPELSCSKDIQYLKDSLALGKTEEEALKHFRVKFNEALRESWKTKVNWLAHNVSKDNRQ

Ratio IC50 (Homo sapiens [1]) | Ratio IC50 (Homo sapiens [2]) | Ratio IC50 (Homo sapiens [3]) | Ratio IC50 [4] | Structure (SMILES)
115 | 192 | 17 |  | COc1ncc(-c2ccc3ncnc(N[C@H]4CCCN(C(=O)CN(C)C)C4)c3c2)cc1C#N
13 |  | 170 | 2 | COc1ncc(-c2ccc3ncnc(N[C@H]4CCCN(C(=O)c5cccnc5)C4)c3c2)cc1C#N
